# Test results published in patent US20250057837A1, “Methods for Treating HCV” (priority 2015, published 2025).
# Settings: human, in vivo
row,Substance,"dose-normalized Cmax, AUC24, and C24, change [%]"
1,R-methadone,≤ 5
2,S-methadone,≤ 5
